# Measurements: patent publication US20230285292A1, “COMPOSITIONS AND METHODS OF USING A PLA2-RESPONSIVE DRUG DELIVERY SYSTEM” (THE TRUSTEES OF THE UNIVERSITY OF PENNSYLVANIA, priority 2020, published 2023)
# Assay: Bovine cartilage explant penetration assay
# Settings: rhodamine 10 μM, incubation up to 8 days
substance,measurement,value
"1,2-dioleoyl-sn-glycero-3-phosphoethanolamine-N-(Lissamine rhodamine B sulfonyl) [free rhodamine]",distribution of fluorescence signal in cartilage,very little fluorescence signal was observed in the deep zone of cartilage
